Patent US11242555B2, “Molecular sensors and uses thereof” (New York University, priority 2018, dated 2022)

System: double-stranded oligo probe (DNA)
Experiment: High-throughput screen of a compound library with the linear oligo probe (FRET ratio, 384 well plate)
Format: binding
Settings: Cy5/Cy3 intensity, library peak ˜1.1, a small ratio indicates intercalation

SODIUM NITROPRUSSIDE
FRET ratio: 0.09876

Some compounds may have been tested in ways that are not shown here.
